Here are results for one compound from PMC5290327, “SC83288 is a clinical development candidate for the treatment of severe malaria” (Nature Communications, 2017).

SMILES strings stand for the structures.

This assay relates to Dd2 trophozoites. Briefly: In vitro speed of action, clearance of trophozoites (Vial protocol). It is filed as cell-based, Plasmodium falciparum. The note with it: compared with SC compounds. The protocol:
To assess how quickly the two compounds were able to kill the parasite, we exposed highly synchronized trophozoites (24–30 h post invasion; 0.5% parasitemia) of Dd2 to different drug concentrations ranging from 0.1 to 10 μM (ref. [7]). Aliquots were withdrawn at different time points (from 0 to 6 h) after the addition of the drug and analysed for cell viability by [^3H] hypoxanthine incorporation. Parasite clearance depended on both drug concentration and exposure time (Fig. 4a). For instance, SC83288 cleared a 0.5% parasitemia at a concentration of 500 nM within an exposure time of 3±1 h (n=4).
The second approach followed the protocol described by Vial et al.[7]. Briefly, highly synchronized trophozoite-stage parasites (24–26 h post invasion; 0.5% parasitemia, 2% haemtocrit) were treated with 100, 500, 1, 5 and 10 μM of artemisinin, SC81458 and SC83288 for up to 6 h (0 h, 10 min, 30 min, 1 h, 2 h, 3 h, 4 h, 5 h and 6 h), before the drugs were washed out and cells returned to culture. At time point 10 h post invasion of the following cycle, [^3H]-hypoxanthine was added for 24 h to monitor parasite viability. The clearance time was determined for each treatment condition and was expressed as a function of the drug concentration.

For the compound `C[C@@H]1CC[C@H]2[C@@H](C)C(=O)O[C@@H]3O[C@@]4(C)CC[C@@H]1[C@]32OO4` [Artemisinin], the “killing efficacy for trophozoites” value is on record as “slower killing efficacy”.
